# Values quoted from earlier work, collected in article PMC13421293 (Thrombosis and Haemostasis, 2025).
# Conditions: compared with healthy volunteers who received fentanyl; cited from earlier work
smiles,measurement,value
COC(F)(F)C(Cl)Cl [methoxyflurane],"hemodynamic parameters such as stroke volume, cardiac output, or mean arterial pressure",no significant impact
